Data on three compounds can be found in ChEMBL document CHEMBL1143376, “Synthesis and biological evaluation of extraordinarily potent C-10 carba artemisinin dimers against P. falciparum malaria parasites and HL-60 cancer cells” (Bioorg Med Chem, 2009).

Usually IC50 stands for the concentration that gives 50% inhibition. A high value points to lower potency.

This test relates to HL-60. The test is described as follows: Anticancer activity against human HL60 cells by MTT assay. The test is classed as functional, cell-based. Summed up: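 HL-60 cells grown in RPMI-1640 with 10% v/v FBS and 1% v/v L-glutamine, 37 °C, 5% CO2, kept below 1 × 10⁶ cells/mL, passages 5–15. Seeded at 2.5 × 10⁴/well in triplicate and exposed for 72 h to […]. DMSO final below 0.5% v/v. Read by MTT (4 h) then SDS/DMF lysis (4 h), A570/590, as % of vehicle. IC50 taken from inhibition curves; experiments repeated at least three times.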
In turn, `C[C@H]1[C@@H](CCOP(C)(=O)OCC[C@H]2O[C@@H]3O[C@@]4(C)CC[C@H]5[C@H](C)CC[C@@H]([C@H]2C)[C@@]35O4)O[C@@H]2O[C@@]3(C)CC[C@H]4[C@H](C)CC[C@@H]1[C@@]24O3` registered an IC50 of 28100 nM.

As for `C[C@H]1[C@@H](CCOP(C)(=O)OCC[C@H]2O[C@@H]3O[C@@]4(C)CC[C@H]5[C@H](C)CC[C@@H]([C@H]2C)[C@@]35OO4)O[C@@H]2O[C@@]3(C)CC[C@H]4[C@H](C)CC[C@@H]1[C@@]24OO3`, half-maximal inhibition (IC50) was put at 160 nM. Turning to `C[C@H]1[C@@H](CCCOP(C)(=O)OCCC[C@H]2O[C@@H]3O[C@@]4(C)CC[C@H]5[C@H](C)CC[C@@H]([C@H]2C)[C@@]35OO4)O[C@@H]2O[C@@]3(C)CC[C@H]4[C@H](C)CC[C@@H]1[C@@]24OO3`, the IC50 was determined as 100 nM.
